In US20110293559A1, “CATABOLIC AGENTS” (priority 2008, published 2011):

Test system: MMP13 gene expression
Assay: qPCR MMP13 gene expression in cartilage explants
Type: cell-based
Excerpt: Six millimetre diameter cartilage explants from immature articular cartilage containing 3 mm diameter inner cores, both created using punch biopsy tools (Steifel), were placed in Dulbecco's modified Eagles medium (DMEM) culture medium containing various concentrations of interleukin-1β or tumour necrosis factor α (TNFα; Peprotech), or, the culture medium without cytokine as a control. The medium was removed after the nominated time and washed once with DMEM then replaced with DMEM medium containing 50 μg/ml ascorbate, 10 mM HEPES, gentamycin and supplemented with 1× insulin-transferrin-selenium (ITS; Sigma). For qPCR studies the explants were first allowed to equilibriate in serum containing medium for 3 days, then washed 3 times in serum-free DMEM before the treatment as described above. […]
Quantitative polymerase chain reaction (qPCR) using the fluorescent dye SYBR Green (Eurogentec, Belgium) was used to determine the absolute expression levels of ADAMTS4 and MMP-13 between explants. […] At the end of each reaction, the cycle threshold (CT) was manually setup at the level that reflected the best kinetic PCR parameters, and melting curves were acquired and analysed. Absolute values for the gene of interest were calculated from standard curves generated using serially diluted plasmid cloned and sequence verified template (ng DNA) and were normalized to the housekeeping gene 18S rRNA.

Question: For “TNFα: catabolic cytokine tumour necrosis factor α (Peprotech)”, which “MMP13 gene expression, effect of increasing concentrations” value (12.5-100 ng/ml for 2 hours) is on record?
Answer: linear increase in MMP13 gene expression

Question: And the “increase in MMP13 gene expression” value (highest concentration of TNFα (12.5-100 ng/ml tested), 2 hours, P<0.03, n=3 (FIG. 4))?
Answer: approximately 2 fold
